For test [1], the target named is T1, Renin (Homo sapiens, UniProt P00797).
Test [2] deals with T1, Renin. This is another data set of the same source.
Test [3] concerns the target T1, Renin. The source holds these as a separate data set.

By UniProt entry, the sequences of proteins in these tests, tags left out. Where a name states a change or a piece, a line headed by the entry shows the natural chain unless it says otherwise.
UniProt P00797: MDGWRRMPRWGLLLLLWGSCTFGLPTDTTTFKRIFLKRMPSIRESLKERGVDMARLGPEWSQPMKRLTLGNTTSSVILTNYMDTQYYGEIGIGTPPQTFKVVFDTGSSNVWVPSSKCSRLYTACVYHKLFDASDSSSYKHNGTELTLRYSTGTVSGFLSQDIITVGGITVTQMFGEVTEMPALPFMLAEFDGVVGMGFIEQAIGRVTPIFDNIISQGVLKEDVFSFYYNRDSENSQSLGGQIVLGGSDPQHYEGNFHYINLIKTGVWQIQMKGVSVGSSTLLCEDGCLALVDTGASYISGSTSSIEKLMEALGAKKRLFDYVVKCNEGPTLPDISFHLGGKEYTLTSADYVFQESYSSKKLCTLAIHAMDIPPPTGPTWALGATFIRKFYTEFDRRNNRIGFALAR

Structures are written as SMILES.

As to `COCCCCn1c(C(=O)N(CC(C)C)[C@@H]2CNC[C@H](C(=O)N3CCOCC3)C2)nc2ccccc21`, the IC50 (as a rule, the point on the concentration scale where inhibition reaches its midpoint) in test [1] came to 0.84 nM; in test [2] it was 0.43 nM; in test [3], 1.4 nM.

For the origin of these results see ChEMBL document CHEMBL4118173, “Discovery of benzimidazole derivatives as orally active renin inhibitors: Optimization of 3,5-disubstituted piperidine to improve pharmacokinetic profile” (Bioorg Med Chem, 2018).
